Data as given in ChEMBL document CHEMBL4627335, “Lead discovery, chemical optimization, and biological evaluation studies of novel histone methyltransferase SET7 small-molecule inhibitors” (Bioorg Med Chem Lett, 2020).

Tested on: MCF7
Experiment: Antiproliferative activity against human MCF7 cells expresses endogenous ER by Cell Titer-Glo based luminescence assay
Assay type: functional

Q: How did the Activity turn out when `COC(=O)c1ccc(C2=CC(=O)C=CC2=O)o1` was run?
A: Its Activity is “Dose-dependent effect”.
